Measured values taken from patent US20150017651.
Numbering of substitutions follows the chain as printed.

T1: GST-Gli1F1 (GST fusion of Gli1 amino acids 1-500), P08151
T1 chain: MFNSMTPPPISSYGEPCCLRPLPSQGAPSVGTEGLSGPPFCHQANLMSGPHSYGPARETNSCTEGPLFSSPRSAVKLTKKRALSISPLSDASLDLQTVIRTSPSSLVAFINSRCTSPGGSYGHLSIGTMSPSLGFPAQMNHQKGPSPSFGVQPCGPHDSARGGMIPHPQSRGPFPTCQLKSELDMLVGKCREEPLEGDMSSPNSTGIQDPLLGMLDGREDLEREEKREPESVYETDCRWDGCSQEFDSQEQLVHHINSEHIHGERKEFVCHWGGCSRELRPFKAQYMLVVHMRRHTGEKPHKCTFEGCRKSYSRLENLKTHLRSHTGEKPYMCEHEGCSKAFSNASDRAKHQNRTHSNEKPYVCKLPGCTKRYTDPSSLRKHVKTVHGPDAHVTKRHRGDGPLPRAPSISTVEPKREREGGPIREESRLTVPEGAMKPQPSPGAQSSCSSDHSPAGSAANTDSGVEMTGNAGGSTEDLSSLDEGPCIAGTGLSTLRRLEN

T2: GST-Gli1F2 (GST fusion of Gli1 amino acid 501 to the end), P08151
T2 chain: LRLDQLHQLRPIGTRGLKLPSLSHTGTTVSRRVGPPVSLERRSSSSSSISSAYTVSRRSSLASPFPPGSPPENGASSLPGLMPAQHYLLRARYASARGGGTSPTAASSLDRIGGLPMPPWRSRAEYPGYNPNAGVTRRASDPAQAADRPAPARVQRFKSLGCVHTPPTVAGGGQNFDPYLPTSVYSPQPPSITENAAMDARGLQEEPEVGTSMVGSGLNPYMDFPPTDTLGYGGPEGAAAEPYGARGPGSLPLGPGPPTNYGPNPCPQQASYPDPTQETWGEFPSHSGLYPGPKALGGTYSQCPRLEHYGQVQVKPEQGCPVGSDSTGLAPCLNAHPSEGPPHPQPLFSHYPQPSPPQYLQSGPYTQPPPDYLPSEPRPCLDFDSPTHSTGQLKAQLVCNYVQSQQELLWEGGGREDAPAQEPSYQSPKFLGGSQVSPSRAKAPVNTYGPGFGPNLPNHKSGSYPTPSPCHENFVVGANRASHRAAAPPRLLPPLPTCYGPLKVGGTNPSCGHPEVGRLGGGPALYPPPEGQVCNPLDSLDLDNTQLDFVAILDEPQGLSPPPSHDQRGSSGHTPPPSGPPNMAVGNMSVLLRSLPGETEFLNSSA

T3: Gli1 (wild-type, full-length), P08151
T3 chain: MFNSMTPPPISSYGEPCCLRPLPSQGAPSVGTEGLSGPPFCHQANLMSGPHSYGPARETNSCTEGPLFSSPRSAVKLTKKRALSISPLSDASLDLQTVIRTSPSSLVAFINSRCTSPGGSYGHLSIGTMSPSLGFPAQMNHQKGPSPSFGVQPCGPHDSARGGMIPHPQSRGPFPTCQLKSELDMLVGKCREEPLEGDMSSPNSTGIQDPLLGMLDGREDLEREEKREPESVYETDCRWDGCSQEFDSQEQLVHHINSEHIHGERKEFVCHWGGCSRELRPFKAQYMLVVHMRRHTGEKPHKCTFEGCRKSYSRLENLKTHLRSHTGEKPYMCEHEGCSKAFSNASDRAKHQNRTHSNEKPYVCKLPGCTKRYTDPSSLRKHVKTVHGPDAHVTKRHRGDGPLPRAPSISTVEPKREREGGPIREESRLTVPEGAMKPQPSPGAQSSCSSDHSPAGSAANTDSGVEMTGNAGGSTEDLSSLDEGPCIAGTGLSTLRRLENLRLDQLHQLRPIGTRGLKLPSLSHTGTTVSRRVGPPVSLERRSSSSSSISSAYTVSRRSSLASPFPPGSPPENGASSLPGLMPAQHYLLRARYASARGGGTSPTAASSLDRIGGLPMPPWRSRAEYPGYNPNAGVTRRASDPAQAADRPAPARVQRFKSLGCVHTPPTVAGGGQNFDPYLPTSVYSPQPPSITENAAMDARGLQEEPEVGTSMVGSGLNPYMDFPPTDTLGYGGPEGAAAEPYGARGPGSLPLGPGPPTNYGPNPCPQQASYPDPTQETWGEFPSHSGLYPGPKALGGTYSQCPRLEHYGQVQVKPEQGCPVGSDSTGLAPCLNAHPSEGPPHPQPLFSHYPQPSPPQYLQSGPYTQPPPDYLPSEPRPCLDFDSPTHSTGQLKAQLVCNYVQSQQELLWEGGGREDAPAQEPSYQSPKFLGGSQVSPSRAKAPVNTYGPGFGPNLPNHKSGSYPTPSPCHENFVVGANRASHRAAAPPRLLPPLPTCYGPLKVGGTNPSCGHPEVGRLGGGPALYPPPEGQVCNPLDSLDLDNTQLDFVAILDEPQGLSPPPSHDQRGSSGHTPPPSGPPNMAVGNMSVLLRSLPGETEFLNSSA

B1: HA-tagged wild-type S6K1 (protein)
chain: MAGVFDIDLDQPEDAGSEDELEEGGQLNESMDHGGVGPYELGMEHCEKFEISETSVNRGPEKIRPECFELLRVLGKGGYGKVFQVRKVTGANTGKIFAMKVLKKAMIVRNAKDTAHTKAERNILEEVKHPFIVDLIYAFQTGGKLYLILEYLSGGELFMQLEREGIFMEDTACFYLAEISMALGHLHQKGIIYRDLKPENIMLNHQGHVKLTDFGLCKESIHDGTVTHTFCGTIEYMAPEILMRSGHNRAVDWWSLGALMYDMLTGAPPFTGENRKKTIDKILKCKLNLPPYLTQEARDLLKKLLKRNAASRLGAGPGDAGEVQAHPFFRHINWEELLARKVEPPFKPLLQSEEDVSQFDSKFTRQTPVDSPDDSTLSESANQVFLGFTYVAPSVLESVKEKFSFEPKIRSPRRFIGSPRTPVSPVKFSPGDFWGRGASASTANPQTPVEYPMETSGIEQMDVTMSGEASAPLPIRQPNSGPYKKQAFPMISKRPEHLRMNL
B2: HA-tagged kinase-dead S6K1K100R (protein)
chain: B1 chain with K100R
B3: HA-tagged constitutively activated S6K1T389E (protein)
chain: B1 chain with T389E

What was measured:
[1] = molecular target: T1, GST-Gli1F1 (GST fusion of Gli1 amino …)
[2] = molecular target: GST-Gli1F1 with the alanine substitution of serine 84, P08151
[3] = molecular target: T2, GST-Gli1F2 (GST fusion of Gli1 amino …)
[4] = molecular target: T3, Gli1 (wild-type, full-length), P08151

| Protein | in vitro kinase assay (phosphorylation of the purified GST fragment) [1] | in vitro kinase assay (phosphorylation of the purified GST fragment) [2] | in vitro kinase assay (phosphorylation of the purified GST fragment) [3] | serine/threonine phosphorylation of immunoprecipitated endogenous Gli1 (Western blot) [4] |
| --- | --- | --- | --- | --- |
| B1 | only one of the Gli1 fragments containing amino acids 1-500, Gli1F1, was phosphorylated by S6K1 but not by S6K1K100R | When Ser84 was mutated to alanine (Gli1S84A), phosphorylation of Gli1 by S6K1 disappeared | only one of the Gli1 fragments containing amino acids 1-500, Gli1F1, was phosphorylated by S6K1 (Gli1F2 was not) | serine/threonine phosphorylation of Gli1 was observed with the ectopic expression of S6K1 or S6K1T389E (FIG. 3A), but neither S6K1T389A nor S6K1K100R |
| B2 | only one of the Gli1 fragments containing amino acids 1-500, Gli1F1, was phosphorylated by S6K1 but not by S6K1K100R | – | – | serine/threonine phosphorylation of Gli1 was observed with the ectopic expression of S6K1 or S6K1T389E (FIG. 3A), but neither S6K1T389A nor S6K1K100R |
| B3 | – | – | – | serine/threonine phosphorylation of Gli1 was observed with the ectopic expression of S6K1 or S6K1T389E (FIG. 3A), but neither S6K1T389A nor S6K1K100R |
